Results published in BindingDB's records for 20638843.

Amino acid sequences for entries named in this document (tags omitted). Residues count along the entry.
UniProt Q05941, 23-502 limits assumed: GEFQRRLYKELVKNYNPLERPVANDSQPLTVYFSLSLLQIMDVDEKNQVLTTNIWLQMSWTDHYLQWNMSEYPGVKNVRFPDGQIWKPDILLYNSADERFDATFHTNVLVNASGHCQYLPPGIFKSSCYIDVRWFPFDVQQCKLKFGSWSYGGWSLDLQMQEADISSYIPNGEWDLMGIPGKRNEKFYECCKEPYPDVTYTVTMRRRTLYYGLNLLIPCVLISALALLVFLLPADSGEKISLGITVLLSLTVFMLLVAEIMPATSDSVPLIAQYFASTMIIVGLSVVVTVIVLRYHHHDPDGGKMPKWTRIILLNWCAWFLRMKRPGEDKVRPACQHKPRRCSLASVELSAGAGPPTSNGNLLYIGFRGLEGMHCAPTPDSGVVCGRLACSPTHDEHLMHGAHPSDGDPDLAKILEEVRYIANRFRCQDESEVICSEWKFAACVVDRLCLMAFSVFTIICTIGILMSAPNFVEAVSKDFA

Molecular target: Neuronal acetylcholine receptor subunit alpha-7 (Rattus norvegicus, UniProt Q05941)
Test: Displacement of [125I]alpha-bungarotoxin from alpha7 nicotinic acetylcholine receptor in rat brain membrane

O=C(NCC1CCN(Cc2ccccc2)CC1)c1cn(Cc2cccc(Cl)c2)nn1
IC50: 11.9 µM
